The source of these data is article PMC1262692.

The target in the test is Speedy/Ringo A2-His6 (mouse) (UniProt Q5IBH7). Kind of test: SEC; Cdk2 and Speedy/Ringo A2-His6 coexpressed in E. coli, purified together on a metal affinity column, loaded on Superdex-200 in 1 x TBS (50 mM Tris-HCl pH 7.4, 150 mM NaCl, 0.5 mM EDTA, 0.5 mM DTT), 0.5 ml/min; fractions read by Coomassie stain and anti-Cdk2 blot.

“Cdk2 coexpressed with Speedy/Ringo A2-His6 (unphosphorylated on Thr-160) (from UniProt P24941 1-298) (enzyme)” returned a stoichiometry N (Cdk2 per Speedy/Ringo A2-his6) of 1.
